The nature of this series: LogP (1-octanol/water partition coefficient) of terpenes, slow-stirring method. From the text:
LogP is the partition coefficient of a molecule between aqueous and lipophilic phases, usually considered as octanol and water. As referred to herein, the LogP of specific terpenes can be determined using the “slow-stirring” method, wherein water, 1-octanol and the test substance are equilibrated in a thermostated stirred reactor. Exchange between the phases is accelerated by stirring. The stirring introduces limited turbulence which enhances the exchange between 1-octanol and water without microdroplets being formed. A suitable “slow-stirring” method is: Test No. 123: Partition Coefficient (1-Octanol/Water): Slow-Stirring Method, 30 Jun. 2022, OECD Guidelines for the Testing of Chemicals.

For one molecule, logP results are on record in patent US20250287987A1, “AEROSOLISABLE MATERIAL” (NICOVENTURES TRADING LIMITED, priority 2022, published 2025).

`C=CC(C)(O)CCC=C(C)C` (stereo not shown) [Linalool] showed a logP of 3.29.
